From patent US20130295185A1, “COMPOUNDS AND METHODS FOR INDUCING APOPTOSIS IN CANCER CELLS USING A BH3 ALPHA-HELICAL MIMETIC” (H. Lee Moffitt Cancer Center and Research Institute, Inc., priority 2011, published 2013)

Protein sequences, listed by entry. Tags and fused reporters are not part of them.
UniProt Q07817, whole entry: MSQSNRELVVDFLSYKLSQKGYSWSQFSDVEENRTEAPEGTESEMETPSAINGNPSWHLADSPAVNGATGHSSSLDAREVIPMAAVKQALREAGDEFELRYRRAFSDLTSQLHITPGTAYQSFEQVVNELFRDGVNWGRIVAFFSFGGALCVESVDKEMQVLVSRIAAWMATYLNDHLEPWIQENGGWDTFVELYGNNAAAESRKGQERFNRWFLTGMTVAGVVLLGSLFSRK

Legend:
Bcl-XL/Bad interaction = Bcl-XL/Bad interaction (Homo sapiens, UniProt Q07817); test: GFP-Bad mitochondrial localization by fluorescence microscopy in COS-7 cells; conditions: COS-7 cells co-expressing GFP-Bad and HA-Bcl-XL, 100 μM, 4 h; tested form: diammonium salt (as drawn, CO2NH4)
Procedure: FIG. 3 is a series of images illustrating BH3-M6 inhibits the Bcl-XL interaction with Bad in intact cells. BH3-M6 inhibits Bcl-XL-induced GFP-Bad mitochondrial localization. COS-7 cells were grown in DMEM supplemented with 10% FBS and antibiotics, transfected with the indicated constructs, treated and analyzed as described in EXPERIMENTAL PROCEDURES. (A) cells expressing pEGFP-Bad and pcDNA3-HA-Bcl-XL. (B) quantification of the fluorescence data (gray: diffuse, black: punctate cells). At least 85 transfected cells per sample were counted in three different fields of view.
COS-7 cells were seeded onto glass cover slips in 24-well plates and transfected with 1 μg pEGFP-Bad expression vector alone or co-transfected with 0.5 μg pEGFP-Bad and 0.5 μg pcDNA3-HA-Bcl-XL sing TransFectin™ reagent. After 18 h, cells were treated with DMSO, 100 μM of BH3-M6, or TPC for 4 h in the presence of a caspase inhibitor (50 μM z-VAD-fmk) to prevent apoptosis. […] Following another wash with cold PBS, the cover slips were mounted with DAPI-containing mount media (Vector Laboratories, Burlingame, Calif.) and analyzed by fluorescence microscopy.
To determine whether BH3-M6 is active in intact cells, the inventors used two methods: fluorescence microscopy for cells exogenously expressing Bcl-XL and GFP-Bad, as well as co-immunoprecipitation of endogenous proteins.

DU-145 cells = test: PARP cleavage in DU-145 cells; conditions: DU-145 (undetectable Bax), 24 h; tested form: diammonium salt (as drawn, CO2NH4)
Procedure: FIG. 6 is a series of images illustrating BH3-M6 induces apoptosis in a Bcl-2-, Bcl-XL-, and Mcl-1-dependent manner. BH3-M6 induces caspase-3/-7 activities and apoptosis in Bcl-XL/Bim, Bcl-2/Bim and Mcl-1/Bim overexpressing cells. MDA-MB-468 cells transfected with Bcl-XL-IRES-BimEL, Bcl-2-IRES-BimEL, and Mcl-1-IRES-BimEL were grown in 100-mm plates and treated with 0, 25, 50, or 100 μM BH3-M6 or 100 μM of TPC for 24 h at 37° C. Cells were then harvested and lysed using 0.2% NP-40 lysis buffer (without protease and phosphatase inhibitors for cell-free caspase assay and with protease and phosphatase inhibitors for Western blot analysis). (A) Caspase-3/-7 activity was determined by incubating whole-cell extracts with caspase-3/-7 substrate and measuring free AMCs (left panel), apoptosis was quantified by TUNEL assay (middle panel), gray: TPC, black: BH3-M6. BimEL, Bcl-XL, Bcl-2 and Mcl-1 expression levels were determined by Western blotting (right panel). (B) PARP cleavage by Western blotting. (C) Expression levels of different anti- and pro-apoptotic proteins in DU-145 and LNCaP cells as determined by Western blotting. (D) BH3-M6 induces apoptosis in LNCaP human prostate cancer cells expressing Bax, but not in DU-145 human prostate cancer cells lacking detectable Bax expression. LNCaP and DU-145 cells were treated with 0, 25 and 50 μM of BH3-M6 or 50 μM of TPC for 24 h. […]

[1] = test system: MDA-MB-468 cells expressing Bcl-XL/Bim, Bcl-2/Bim, Mcl-1/Bim; test: Caspase-3/-7, TUNEL and PARP cleavage in MDA-MB-468 cells expressing Bcl-XL/Bim, Bcl-2/Bim, Mcl-1/Bim; conditions: 24 h, tested form: diammonium salt (as drawn, CO2NH4)
Procedure: FIG. 6 is a series of images illustrating BH3-M6 induces apoptosis in a Bcl-2-, Bcl-XL-, and Mcl-1-dependent manner. BH3-M6 induces caspase-3/-7 activities and apoptosis in Bcl-XL/Bim, Bcl-2/Bim and Mcl-1/Bim overexpressing cells. MDA-MB-468 cells transfected with Bcl-XL-IRES-BimEL, Bcl-2-IRES-BimEL, and Mcl-1-IRES-BimEL were grown in 100-mm plates and treated with 0, 25, 50, or 100 μM BH3-M6 or 100 μM of TPC for 24 h at 37° C. Cells were then harvested and lysed using 0.2% NP-40 lysis buffer (without protease and phosphatase inhibitors for cell-free caspase assay and with protease and phosphatase inhibitors for Western blot analysis). (A) Caspase-3/-7 activity was determined by incubating whole-cell extracts with caspase-3/-7 substrate and measuring free AMCs (left panel), apoptosis was quantified by TUNEL assay (middle panel), gray: TPC, black: BH3-M6. BimEL, Bcl-XL, Bcl-2 and Mcl-1 expression levels were determined by Western blotting (right panel). (B) PARP cleavage by Western blotting. (C) Expression levels of different anti- and pro-apoptotic proteins in DU-145 and LNCaP cells as determined by Western blotting. (D) BH3-M6 induces apoptosis in LNCaP human prostate cancer cells expressing Bax, but not in DU-145 human prostate cancer cells lacking detectable Bax expression. LNCaP and DU-145 cells were treated with 0, 25 and 50 μM of BH3-M6 or 50 μM of TPC for 24 h. Cells were lysed and subjected to Western blot analysis. (E) Depletion of Bax, but not Bak by siRNA renders LNCaP cells resistant to apoptosis. LNCaP cells were transfected with 10 nM Bax or Bak siRNA or control siRNA for 48 h, followed by 24 h treatment with or without 25 or 50 μM BH3-M6. Cells were lysed and subjected to Western blot analysis with the indicated antibodies.
Release of cytochrome c from isolated mitochondria was measured as described by Takahashi et al. (Takahashi, Y., Karbowski, M., Yamaguchi, H., Kazi, A., Wu, J., Sebti, S. M., Youle, R. J., and Wang, H. G. (2005) Mol Cell Biol 25, 9369-9382) Cell-free caspase-3/-7 activity and the extent of PARP cleavage was determined as described previously. […]

inhibition of Bcl-XL-induced Bad mitochondrial localization (Bcl-XL/Bad interaction): about 50%
SMILES: CC(C)Cc1cc(-c2ccc(-c3ccc(CCC(=O)O)cc3CC(C)C)cc2Cc2ccccc2)ccc1OCC(=O)O
PARP cleavage (DU-145 cells): but not in DU-145 cells
apoptosis induction by TUNEL assay [1]: 7 to 12 fold
apoptosis induction by caspase-3/-7 activation assay [1]: 8- to 10 fold
PARP cleavage ([1]; three cell lines): induced PARP cleavage
